Experimental data reported in ChEMBL document CHEMBL1250436, “Evaluation of N-substitution in 6,7-benzomorphan compounds” (Bioorg Med Chem, 2010).

The chains behind the UniProt entries cited, without tags or fusion partners.
UniProt P33535, whole entry: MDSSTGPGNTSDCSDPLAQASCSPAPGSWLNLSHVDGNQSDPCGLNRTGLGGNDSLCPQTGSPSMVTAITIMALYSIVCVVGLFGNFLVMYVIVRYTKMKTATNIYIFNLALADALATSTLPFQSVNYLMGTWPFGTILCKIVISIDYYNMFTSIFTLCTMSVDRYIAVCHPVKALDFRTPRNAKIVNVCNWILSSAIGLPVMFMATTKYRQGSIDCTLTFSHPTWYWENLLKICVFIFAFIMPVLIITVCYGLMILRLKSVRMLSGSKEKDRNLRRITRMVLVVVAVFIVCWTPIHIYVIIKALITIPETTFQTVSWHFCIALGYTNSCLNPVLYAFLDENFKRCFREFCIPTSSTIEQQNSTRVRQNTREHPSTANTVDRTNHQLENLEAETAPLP

Molecular target: Mu-type opioid receptor (Rattus norvegicus, UniProt P33535)
Assay: Displacement of [3H]DAMGO from Sprague-Dawley rat mu opioid receptor by liquid scintillation counting

C[C@@H](NC(=O)[C@@H](N)Cc1ccc(O)cc1)C(=O)NCC(=O)N(C)[C@@H](Cc1ccccc1)C(=O)NCCO [DAMGO]
Ki: 0.87 nM
